Test results from ChEMBL document CHEMBL3232704, “Discovery of mixed type thymidine phosphorylase inhibitors endowed with antiangiogenic properties: synthesis, pharmacological evaluation and molecular docking study of 2-thioxo-pyrazolo[1,5-a][1,3,5]triazin-4-ones. Part II” (Eur J Med Chem, 2014).
Active and inactive are the calls of the source. No cut-off for these calls is given here.

Key:
[1] = biological target: T1, Thymidine phosphorylase (Homo sapiens) (UniProt P19971); test: Inhibition of thymidine phosphorylase-mediated VEGF expression in human MDA-MB-231 cells at 100 uM by ELISA; type: cell-based
T1 sequence (whole entry): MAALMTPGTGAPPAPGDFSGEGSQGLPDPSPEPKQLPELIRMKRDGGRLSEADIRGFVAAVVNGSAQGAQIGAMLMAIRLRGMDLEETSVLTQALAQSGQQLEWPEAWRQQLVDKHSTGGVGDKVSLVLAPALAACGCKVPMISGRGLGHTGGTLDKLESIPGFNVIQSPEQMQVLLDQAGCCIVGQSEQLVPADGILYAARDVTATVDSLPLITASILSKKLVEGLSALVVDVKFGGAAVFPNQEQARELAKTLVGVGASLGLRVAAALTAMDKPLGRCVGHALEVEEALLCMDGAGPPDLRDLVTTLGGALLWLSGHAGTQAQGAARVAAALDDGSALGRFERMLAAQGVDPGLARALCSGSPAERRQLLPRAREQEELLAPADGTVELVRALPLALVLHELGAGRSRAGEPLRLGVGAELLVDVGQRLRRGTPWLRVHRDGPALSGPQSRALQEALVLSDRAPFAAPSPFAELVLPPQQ

[2] = biological target: T1, Thymidine phosphorylase (Homo sapiens); test: Inhibition of thymidine phosphorylase-mediated MMP-9 expression in human MDA-MB-231 cells at 100 uM by densitometric analysis; type: cell-based

inhibition [1]: inactive
inhibition [2]: inactive
SMILES: O=c1[nH]c(=O)c2cc[nH]c2[nH]1 [7-DEAZAXANTHINE]
